Tested on: T cells
Assay: Cytokine rescue of T cell proliferation from MEK inhibition
Format: cell-based, human
Conditions: IL-2 20 U/ml, IL-7 2 ng/ml, IL-15 10 ng/ml, IL-21 100 ng/ml, IL-27 50 ng/ml, ALT-803 35.7 ng/ml
Protocol: FIG. 2A is a graph showing that IL-15 can rescue T cell functions from MEK inhibitors. A proliferation of human PBMCs activated with ConA+/−IL-2 (20 U/ml) and IL-7 (2 ng/ml) was quantified with the division index and plotted as percent of the corresponding vehicle treatment for each group. Averages from 3 independent experiments. *=P<0.05 t-test vs ConA only.
Proliferation of CD8 T cells after 7 days is shown.
Proliferation of CD8 T cells is shown.
FIG. 10 is a table that illustrates that IL-15, IL-2, and IL-7 can rescue T cell proliferation from MEK inhibition. Human PBMCs were stained with CELLTRACE reagent and activated with ConA in the presence of vehicle or GDC0973 (1.45 μM) and the indicated cytokines (IL-2=20 U/ml, IL-7=2 ng/ml, IL-15=10 ng/ml, IL-21=100 ng/ml, IL-27=50 ng/ml). Reported are percentages of cells that proliferated with GDC0973 relative to vehicle treatment with the same cytokines after 7 days. Stains are not depicted.
T cell stimulation—For human T cell proliferation assays, peripheral blood lymphocytes were obtained by leukapheresis/elutriation and Miltenyi bead-purified and K562 cells expressing human CD32 were generated as previously described^41. […] Proliferation of stimulated T cells was determined 7 days later by FACS and Division Index was calculated using FlowJo™ software.

Substance: IL-2: recombinant human IL-2 (Peprotech)
- rescue of T cell proliferation in the presence of the MEK inhibitors: able to rescue

— patent US10258625B2, “Method for treatment of metastatic and refractory cancers and tumors with an inducer that overcomes inhibition of T cell proliferation” (The Wistar Institute of Anatomy and Biology, priority 2015, dated 2019)
